{"source": "patent US7547760B2", "about": "“Peptides and chemical compound for inhibition of SHP2 function” (West Virginia University, priority 2006, dated 2009)", "origin": "cited, not measured here", "test_system": "Tyr kinase domains of EGFR and HER2", "conditions": "patients treated with standard chemotherapy in combination with Iressa"}
{"smiles": "COc1cc2ncnc(Nc3ccc(F)c(Cl)c3)c2cc1OCCCN1CCOCC1", "note": "[Iressa, gefitinib]", "values": [{"measurement": "overall survival rates versus chemotherapy alone", "result": "did not show any significant increase in overall survival rates"}]}
